Reference: ChEMBL document CHEMBL6092220 (J Med Chem, 2024)

Legend:
[1] = organism: Homo sapiens; assay: Binding affinity to STAT5 (unknown origin) assessed as maximum inhibition by FP assay relative to control
[2] = Plasma protein binding in mouse at 10 uM; format: ADME, cell-free
[3] = Plasma protein binding in mouse assessed as unbound fraction at 10 uM; format: ADME, cell-free
[4] = Plasma protein binding in human at 10 uM; format: ADME, cell-free
[5] = Plasma protein binding in dog at 10 uM; format: ADME, cell-free, Canis lupus familiaris

For `NC(=O)CC[C@H](NC(=O)[C@@H]1CC[C@@H]2CCN(C(=O)CCCCCC#Cc3cccc4c3CN(C3CCC(=O)NC3=O)C4=O)C[C@H](NC(=O)c3cc4cc(C(F)(F)P(=O)(O)O)ccc4[nH]3)C(=O)N21)C(=O)NC(c1ccccc1)c1ccccc1` (stereo not given in full), the Imax [1] was 30%.
`COC(=O)N1CC[C@H]2CC[C@@H](C(=O)N[C@@H](CCC(N)=O)C(=O)N[C@@H](Cc3ccc(F)c(F)c3)C(=O)N3CCC(CCC#Cc4cccc5c4CN(C4CCC(=O)NC4=O)C5=O)CC3)N2C(=O)[C@@H](NC(=O)c2cc3cc(C(F)(F)P(=O)(O)O)ccc3s2)C1` (stereo not given in full) gave a PPB [2] of 99.7%, a Fu [3] of 0.3% and a PPB [4] of 99.5%. The PPB [5] was 98.3%.
